Consider one compound from patent US9944624B2 (dated 2018).

Amino acid sequences for entries named in this document (tags omitted). Residues count along the entry.
UniProt Q13231, 22-466: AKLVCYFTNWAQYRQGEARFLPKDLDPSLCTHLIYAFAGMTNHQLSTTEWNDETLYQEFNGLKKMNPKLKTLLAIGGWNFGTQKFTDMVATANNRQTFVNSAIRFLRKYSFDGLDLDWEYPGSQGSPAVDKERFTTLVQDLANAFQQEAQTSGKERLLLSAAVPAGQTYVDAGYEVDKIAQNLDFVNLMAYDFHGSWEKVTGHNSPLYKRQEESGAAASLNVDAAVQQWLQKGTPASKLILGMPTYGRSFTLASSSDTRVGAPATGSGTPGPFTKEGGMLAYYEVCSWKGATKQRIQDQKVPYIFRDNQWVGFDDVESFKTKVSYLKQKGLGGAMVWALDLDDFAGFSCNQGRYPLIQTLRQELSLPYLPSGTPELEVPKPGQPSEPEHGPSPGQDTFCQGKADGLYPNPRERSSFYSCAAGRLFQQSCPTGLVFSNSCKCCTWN

The target in the assay is recombinant human CHIT1 (Homo sapiens (Human), UniProt Q13231). Briefly: Human CHIT1 activity assay (fluorescent 4MU substrate). Type of assay: biochemical.

Each structure is given as a SMILES string. pIC50: −log10 of the molar value.

Consider `CO[C@H]1CN(c2n[nH]c(N)n2)CC[C@@H]1N1C[C@H](C)OC[C@@H]1Cc1ccc(Cl)cc1` [Example 54, 3-((3 S,4S)-4-((2S,5S)-5-(4-chlorobenzyl)-2-methylmorpholino)-3-methoxypiperidin-1-yl)-1H-1,2,4-triazol-5-amine], for which the pIC50 (commonly the negative decadic logarithm of the IC50, by convention in mol/L) was 6.00 to 7.00.
